Assay results: US20150148311A1, “NON-SYSTEMIC TGR5 AGONISTS” (Ardelyx, Inc., priority 2011, published 2015)

Columns and labels:
C57BL/6 male mice = assay: In vivo gallbladder measurement (weight) 8 h post dose; settings: 30 mg/kg; for Gallbladder weight/body weight fold change over vehicle, Significance: 8 h, vs. vehicle, one-way ANOVA, Dunnett's test; for Gallbladder weight/body weight fold change over vehicle, Mean: food removed, eight hours after dosing
total GLP-1 = assay: In vivo GLP-1 secretion, plasma total GLP-1 8 h post dose; settings: Mus musculus, C57BL/6 male mice, food removed, plasma total GLP-1 eight hours after dosing, read-out: GLP-1 fold change over vehicle, Mean
[1] = Compound plasma concentration, LC-MS/MS, 8 h post dose; assay type: in vivo; settings: male, C57BL/6, mouse, mice, 30 mg/kg, read-out: Mean Example Plasma Concentration

SMILES: C[C@@H](NC(=O)[C@@H](C)NC(=O)[C@@H](C)NC(=O)CCCCc1cc(Cl)c(CN2CSC[C@H]2C(=O)N2CCN(C3CC3)c3ccccc32)cc1Cl)C(=O)O [Example 227]
- Gallbladder weight/body weight fold change over vehicle, Significance (C57BL/6 male mice): * (* p < 0.05 vs. vehicle; One-way ANOVA followed by Dunnett's test)
- Gallbladder weight/body weight fold change over vehicle, Mean (C57BL/6 male mice): 1.4 fold change over vehicle
- response vs control in vivo at 30 mg/kg (total GLP-1): 190%

SMILES: O=C(O)CNC(=O)CNC(=O)CNC(=O)CCCCc1cc(Cl)c(CN2CSC[C@H]2C(=O)N2CCN(C3CC3)c3ccccc32)cc1Cl [Example 228]
- Gallbladder weight/body weight fold change over vehicle, Significance (C57BL/6 male mice): * (* p < 0.05 vs. vehicle; One-way ANOVA followed by Dunnett's test)
- Gallbladder weight/body weight fold change over vehicle, Mean (C57BL/6 male mice): 1.5 fold change over vehicle
- response vs control in vivo at 30 mg/kg (total GLP-1): 160%

SMILES: O=C(CCCCc1cc(Cl)c(CN2CSC[C@H]2C(=O)N2CCN(C3CC3)c3ccccc32)cc1Cl)N[C@@H](C(=O)O)[C@@H](O)[C@H](O)[C@H](O)CO [Example 240]
- Gallbladder weight/body weight fold change over vehicle, Significance (C57BL/6 male mice): * (* p < 0.05 vs. vehicle; One-way ANOVA followed by Dunnett's test)
- Gallbladder weight/body weight fold change over vehicle, Mean (C57BL/6 male mice): 1.2 fold change over vehicle
- response vs control in vivo at 30 mg/kg (total GLP-1): 190%

SMILES: O=C(O)CNC(=O)[C@H](CSSC[C@H](NC(=O)CC[C@H](NC(=O)CCCCc1cc(Cl)c(CN2CSC[C@H]2C(=O)N2CCN(C3CC3)c3ccccc32)cc1Cl)C(=O)O)C(=O)NCC(=O)O)NC(=O)CC[C@H](NC(=O)CCCCc1cc(Cl)c(CN2CSC[C@H]2C(=O)N2CCN(C3CC3)c3ccccc32)cc1Cl)C(=O)O [Example 241]
- Gallbladder weight/body weight fold change over vehicle, Significance (C57BL/6 male mice): n.s.
- Gallbladder weight/body weight fold change over vehicle, Mean (C57BL/6 male mice): 1.2 fold change over vehicle
- response vs control in vivo at 30 mg/kg (total GLP-1): 110%

SMILES: CN(C[C@H](O)[C@@H](O)[C@H](O)[C@H](O)CO)C(=O)CC[C@H](NC(=O)CCCCc1cc(Cl)c(CN2CSC[C@H]2C(=O)N2CCN(C3CC3)c3ccccc32)cc1Cl)C(=O)O [Example 278]
- Gallbladder weight/body weight fold change over vehicle, Significance (C57BL/6 male mice): * (* p < 0.05 vs. vehicle; One-way ANOVA followed by Dunnett's test)
- Gallbladder weight/body weight fold change over vehicle, Mean (C57BL/6 male mice): 1.3 fold change over vehicle
- response vs control in vivo at 30 mg/kg (total GLP-1): 140%

SMILES: O=C(O)CC[C@H](NC(=O)CCCCc1cc(Cl)c(CN2CSC[C@H]2C(=O)N2CCN(C3CC3)c3ccccc32)cc1Cl)C(=O)O [Example 279]
- concentration at 8 h [1]: 2 ng/mL

SMILES: O=C(NCCCCCc1cc(Cl)c(CN2CSC[C@H]2C(=O)N2CCN(C3CC3)c3ccccc32)cc1Cl)N1CCN(CP(=O)(O)O)CC1 [Example 282]
- Gallbladder weight/body weight fold change over vehicle, Significance (C57BL/6 male mice): n.s.
- Gallbladder weight/body weight fold change over vehicle, Mean (C57BL/6 male mice): 0.8 fold change over vehicle
- response vs control in vivo at 30 mg/kg (total GLP-1): 80%

SMILES: O=C(NCCCCCc1cc(Cl)c(CN2CSC[C@H]2C(=O)N2CCN(C3CC3)c3ccccc32)cc1Cl)NCP(=O)(O)O [Example 283]
- Gallbladder weight/body weight fold change over vehicle, Significance (C57BL/6 male mice): * (* p < 0.05 vs. vehicle; One-way ANOVA followed by Dunnett's test)
- Gallbladder weight/body weight fold change over vehicle, Mean (C57BL/6 male mice): 1.3 fold change over vehicle
- response vs control in vivo at 30 mg/kg (total GLP-1): 130%
